Values of other authors as cited in patent EP2738198A1, “Enzymatic synthesis of polyamide in aqueous mini-emulsion” (Henkel AG & Co. KGaA, priority 2012, dated 2014).

Settings: alcohol CnH2n+1OH corresponding to the alkyl group of the di(alkyl) sebacate, data from Handbook of Chemistry and Physics 86th Edition

Partial Solubility of CnH2n+1OH in water [g/L]	SMILES
32	CCCCCO [n 5]
2.5	CCCCCCCO [n 7]
